Measured values from PubChem BioAssay AID902 (National Center for Advancing Translational Sciences (NCATS), 2007).
The entries are a selection whose mix differs from that of the whole data set. Inconclusive results are not listed. The source made the active and inactive calls. Calls follow the shape of the dose curve; as a rule, active = well fitted cell-killing curve with a large enough effect; inconclusive = small, poorly fitted or top-dose-only effect; inactive = no such curve, though single readings can be large or run the other way.

Assay: qHTS Screen for Compounds that Selectively Target Cancer Cells with p53 Mutations: Cytotoxicity of p53ts Cells at the Nonpermissive Temperature; also: nearly all actives have a fitted effect of over 55% in size
Conditions: H1299-p53A138V viability at 39C, ATP luminescence, 24 h; at 46.1 µM (top of the series) unless noted
% is scaled to controls: 0 for no effect and ±100 for the full control effect.

Which activity change, negative = cell killing does the source give for `COc1ccccc1OP(C)(=O)Nc1ccc(C)c(C)c1` (configuration not stated) here?
The activity change, negative = cell killing was inactive: 2.95%.

With `COc1ccc(OP(C)(=O)Nc2ccccc2Br)cc1` (configuration not stated) as the compound, how does the activity change, negative = cell killing read?
The activity change, negative = cell killing was inactive: 4.58%.

With `Cc1nc2ccc3ccccc3c2o1.O=[N+]([O-])c1cc([N+](=O)[O-])c(O)c([N+](=O)[O-])c1` as the compound, how does the activity change, negative = cell killing read?
The activity change, negative = cell killing was inactive: 4.23%.

Which activity change, negative = cell killing does the source give for `CP(=O)(Nc1ccccn1)Oc1ccccc1` (configuration not stated) here?
Its activity change, negative = cell killing is inactive: 8.94%.

With `N#[O+].[C-]#N.[C-]#N.[C-]#N.[C-]#N.[C-]#N.[Fe+2].[Na+].[Na+]` as the compound, how does the activity change, negative = cell killing read?
The activity change, negative = cell killing was inactive: 9.68%.

Which activity change, negative = cell killing does the source give for `COc1ccccc1OP(C)(=O)Nc1c(C)n(C)n(-c2ccccc2)c1=O` (configuration not stated) here?
The activity change, negative = cell killing was inactive: 13.5%.

Which activity change, negative = cell killing does the source give for `OCCSCCO` here?
Its activity change, negative = cell killing is inactive: 3.38%.

With `CP(=O)(Oc1ccccc1)N1CCOC1=O` (configuration not stated) as the compound, how does the activity change, negative = cell killing read?
The activity change, negative = cell killing was inactive: 1.46%.

For `CN(C)CCOC(=O)C(O)(c1ccccc1)C1CCCCC1` (configuration not stated), which activity change, negative = cell killing is on record?
Its activity change, negative = cell killing is inactive: -4.11%.

With `Cc1c([N+](=O)[O-])cccc1[N+](=O)[O-]` as the compound, how does the activity change, negative = cell killing read?
Its activity change, negative = cell killing is inactive: 5.87%.

For `Cc1ccc([N+](=O)[O-])c([N+](=O)[O-])c1`, which activity change, negative = cell killing is on record?
Its activity change, negative = cell killing is inactive: -0.597%.

With `CCOP(C)(=S)SCC(=O)NC(C)(CC)C(=O)O` (configuration not stated) as the compound, how does the activity change, negative = cell killing read?
The activity change, negative = cell killing was inactive: 1.17%.

For `CCOP(=O)(CC)OCC`, which activity change, negative = cell killing is on record?
The activity change, negative = cell killing was inactive: 2.19%.

For `CP(=O)(Nc1ccc2c(c1)OCCO2)Oc1ccccc1` (configuration not stated), which activity change, negative = cell killing is on record?
The activity change, negative = cell killing was inactive: 3.89%.

With `Cc1ccccc1NP(C)(=O)Nc1ccccc1C` as the compound, how does the activity change, negative = cell killing read?
The activity change, negative = cell killing was inactive: 0.859%.

Which activity change, negative = cell killing does the source give for `CCN(CCCl)Cc1ccccc1C` here?
The activity change, negative = cell killing was inactive: 9.53%.

Which activity change, negative = cell killing does the source give for `NNC(NN)NN.n1nc(-c2nn[nH]n2)n[nH]1` here?
Its activity change, negative = cell killing is inactive: -2.39% [at 9.22 µM].

Which activity change, negative = cell killing does the source give for `CP(=O)(Nc1ccccc1F)Oc1ccccc1` (configuration not stated) here?
Its activity change, negative = cell killing is inactive: 9.72%.

With `CCC(C)(OO)OOC(C)(CC)OO` (configuration not stated) as the compound, how does the activity change, negative = cell killing read?
Its activity change, negative = cell killing is inactive: -17.9%.

With `Cc1cccc([N+](=O)[O-])c1[N+](=O)[O-]` as the compound, how does the activity change, negative = cell killing read?
The activity change, negative = cell killing was inactive: -3.16%.

For `CCN(CC)CCCOC(=O)C(O)(c1ccccc1)C1CCCCC1` (configuration not stated), which activity change, negative = cell killing is on record?
Its activity change, negative = cell killing is inactive: -0.973%.

Which activity change, negative = cell killing does the source give for `Cc1ccc([N+](=O)[O-])cc1[N+](=O)[O-]` here?
The activity change, negative = cell killing was inactive: -4.66%.

Which activity change, negative = cell killing does the source give for `Cc1ccc(C)c(NP(C)(=O)Oc2ccccc2)c1` (configuration not stated) here?
The activity change, negative = cell killing was inactive: 3.86%.

Which activity change, negative = cell killing does the source give for `Cc1nc2ccc3ccccc3c2s1.O=[N+]([O-])c1cc([N+](=O)[O-])c(O)c([N+](=O)[O-])c1` here?
Its activity change, negative = cell killing is inactive: -3.49%.

With `N1=C(c2nnc(-c3nn[nH]n3)nn2)NNN1` as the compound, how does the activity change, negative = cell killing read?
Its activity change, negative = cell killing is inactive: 1.84% [at 9.22 µM].

Which activity change, negative = cell killing does the source give for `CP(=S)(Nn1cnnc1)Oc1ccccc1` (configuration not stated) here?
The activity change, negative = cell killing was inactive: 1.11%.

For `Cc1cccc(C)c1OP(C)(=O)Nc1ccc(SC(F)(F)F)cc1` (configuration not stated), which activity change, negative = cell killing is on record?
The activity change, negative = cell killing was inactive: -26.2%.

With `CP(=O)(NC(=O)Nc1ccccc1)Oc1ccccc1` (configuration not stated) as the compound, how does the activity change, negative = cell killing read?
The activity change, negative = cell killing was inactive: 4.39%.

For `CCOC(=O)c1ccc(NP(C)(=O)Oc2ccc(OC)cc2)cc1` (configuration not stated), which activity change, negative = cell killing is on record?
The activity change, negative = cell killing was inactive: -2.08%.

With `CCOP(C)(=S)SCC(=O)NC(C)C(=O)O` (configuration not stated) as the compound, how does the activity change, negative = cell killing read?
The activity change, negative = cell killing was inactive: -4.15%.

With `COc1ccccc1OP(C)(=O)Nc1ccc(C)cc1` (configuration not stated) as the compound, how does the activity change, negative = cell killing read?
Its activity change, negative = cell killing is inactive: -0.651%.

For `Cc1ccc(NP(C)(=O)Oc2ccccc2)c(C)c1` (configuration not stated), which activity change, negative = cell killing is on record?
The activity change, negative = cell killing was inactive: 2.04%.
